An excerpt weighted towards active compounds, which were near 2.1% of everything screened.
PDI inh = inhibitors of human PDI, primary screen, biochemical, turbidity, single point, plate reader; Protein disulfide-isomerase (Homo sapiens), P07237; PDI insulin aggregation turbidity, A650, 90 min; inhibition, % at 10 µM; 0.052% of 350,000 active; AID 588391, 2011;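 active = mean inhibition across replicates of 30% or more, whatever share of single replicates reach that level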
ERp5 block = inhibitors of ERp5-driven insulin aggregation, primary screen, biochemical, turbidity, absorbance 650 nm, single point; inhibition, % at 9.99 µM; Protein disulfide-isomerase A6 (Homo sapiens), Q15084; 0.05% of 350,000 active; 90 min;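 active = mean replicate inhibition above about 25%, with every replicate also reaching it, limit read from the data, passing the limit was not always enough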
Yeast UUG start = modulators of start codon recognition fidelity in yeast; AID 602363; activity score, % at 18.7 µM; S. cerevisiae UUG-firefly luciferase reporter, luminescence/redox ratio; 0.13% of 350,000 active;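 active = replicate mean at a twofold rise or more, about +100% in these data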;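 note: firefly luciferase made from a UUG start codon reports start codon fidelity; reporter light over untreated wells divided by growth signal over untreated wells; some hits fall short of that in this replicate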
INS-1E GSIS act = GLuc luminescence reporter in INS-1E cells, primary screen for activators of glucose-dependent secretion of insulin. 0.61% of 370,000 active. activation, % at 16.6 µM. INS-1E GLuc reporter insulin secretion, 2-3 h;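 active = lowest replicate activation of at least 40%, so every replicate reaches that level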;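 note: 0% = median of neutral control wells and 100% = median of IBMX positive control wells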
SMARCA2 activ = SMARCA2 (BRM) function activators, primary screen, cell-based, luminescence, high throughput | MG213 cells, MMTV-luciferase reporter, dexamethasone, overnight | activation, % at 9.1 µM | 1% of 370,000 active | AID 652017, 2013; in the data active = activation above about 7.8%;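 note: 0% = vehicle wells and 100% = reference activator wells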
NR1D1 modulator = modulators of Rev-erb alpha DNA binding, primary screen, biochemical, FITC-DNA, fluorescence polarization, uHTS | Nuclear receptor subfamily 1 group D member 1 (Homo sapiens), P20393 | Rev-erbα–FITC-DNA binding, 90 min | activity, % at 10 µM | 0.79% of 370,000 active;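 active = activity above about 14%, limit read from the data; passing the limit was not always enough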;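 note: 0% = DMSO wells with 35 nM protein and 100% = DMSO wells with 750 nM protein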
* marks the source's active call; other numbers are inactive results; / = no result.

Assay codes: A = PDI inh; B = ERp5 block; C = Yeast UUG start; D = INS-1E GSIS act; E = SMARCA2 activ; F = NR1D1 modulator
O=C1c2c(O)cc(O)cc2O[C@@]12c1c(cc(O)c3c1O[C@H](c1ccc(O)cc1)[C@@H](O)C3)O[C@@H]2c1ccc(O)cc1
  A = 41*; B = 0; C = -6; D = 17; E = -1; F = 2
CCCN(Cc1nnc(-c2ccccc2Cl)o1)C(=O)c1cc2ccccc2o1
  A = 4; B = 8; C = 6; D = 63*; E = 3; F = -1
O=C(c1cc2ccccc2o1)N(Cc1nnc(-c2ccccc2Cl)o1)C1CC1
  A = 1; B = 2; C = -5; D = -5; E = 2; F = 11
CSCCC(C(=O)NC1CCCC1)n1c(-c2ccccn2)nc2ccccc21 (stereo not drawn)
  A = /; B = 2; C = /; D = 1; E = -2; F = -3
O=C(NC1CCCC1)C(C1CC1)n1c(-c2ccccn2)nc2ccccc21 (stereo not drawn)
  A = /; B = -5; C = /; D = 43*; E = -3; F = 1
COCC#Cc1ccc2c(c1)O[C@@H](CN(C)S(C)(=O)=O)[C@@H](C)CN([C@@H](C)CO)S2(=O)=O
  A = /; B = -3; C = -2; D = 19; E = /; F = /
Cc1ccc(CS(=O)Cc2ccc(C(=O)NCc3ccccc3)o2)cc1 (stereo not drawn)
  A = 5; B = -2; C = -15; D = 43*; E = 0; F = 2
Cc1ccc(CS(=O)Cc2ccc(C(=O)NCCc3ccccc3)o2)cc1 (stereo not drawn)
  A = -3; B = /; C = -5; D = 5; E = -1; F = 3
Cc1sc(NC(=O)C2CCCC2)c(C#N)c1C
  A = -11; B = 1; C = -13; D = /; E = -1; F = -7
CCc1ccc(-c2c(C)sc(NC(=O)C3CCC3)c2C#N)cc1
  A = -7; B = /; C = -10; D = 139*; E = -2; F = 4
COc1ccccc1N1CCN(C(=O)C(=O)N/N=C/c2cccc(O)c2)CC1
  A = 36*; B = /; C = -3; D = 26; E = 1; F = 1
Cc1nc(C(Cl)(Cl)Cl)nc2[nH]ccc(=O)c12
  A = -7; B = 0; C = /; D = 130*; E = -4; F = -5
CCC(=O)OCCNc1cc(Sc2nc3ccccc3[nH]2)c2nonc2c1[N+](=O)[O-]
  A = 3; B = /; C = /; D = 88*; E = -10; F = -1
CCC(=O)OCCNc1cc(Sc2nc3ccccc3s2)c2nonc2c1[N+](=O)[O-]
  A = -2; B = /; C = 3; D = 18; E = -1; F = 12
O=[N+]([O-])c1c(NCCCO)cc(Sc2nc3ccccc3s2)c2nonc12
  A = -4; B = 7; C = -5; D = 134*; E = /; F = /

Brought forward from above: 3 entries; new compounds follow.
Assay codes: A = PDI inh; B = ERp5 block; C = Yeast UUG start; D = INS-1E GSIS act; E = SMARCA2 activ; F = NR1D1 modulator
CCC(=O)OCCNc1cc(Sc2nc3ccccc3[nH]2)c2nonc2c1[N+](=O)[O-]
  A = 3; B = /; C = /; D = 88*; E = -10; F = -1
CCC(=O)OCCNc1cc(Sc2nc3ccccc3s2)c2nonc2c1[N+](=O)[O-]
  A = -2; B = /; C = 3; D = 18; E = -1; F = 12
O=[N+]([O-])c1c(NCCCO)cc(Sc2nc3ccccc3s2)c2nonc12
  A = -4; B = 7; C = -5; D = 134*; E = /; F = /
CCCC(=O)OCCNc1cc(Sc2nccn2C)c2nonc2c1[N+](=O)[O-]
  A = 13; B = /; C = /; D = 162*; E = -11; F = 10
CCCSc1cc(NCCOC(=O)CCC)c([N+](=O)[O-])c2nonc12
  A = -9; B = /; C = /; D = 14; E = 1; F = 2
CCNC(=O)C[C@H]1CC[C@H]2[C@@H](COc3ccc(NC(=O)C4CCCCC4)cc3C(=O)N2C)O1
  A = /; B = 16; C = -13; D = -1; E = /; F = /
COc1cccc(NC(=O)N2CC(=O)N3[C@H](CO)[C@@H](c4ccc(C5=CCCC5)cc4)[C@@H]3C2)c1
  A = /; B = 0; C = /; D = -27; E = /; F = /
N#CC1=C(N)Oc2n[nH]c(-c3ccccc3)c2C1c1cccnc1 (stereo not drawn)
  A = 3; B = /; C = -25; D = /; E = 4; F = 4
N#CC1=C(N)Oc2nc(-c3ccccc3)[nH]c2C1c1cccnc1 (stereo not drawn)
  A = -3; B = /; C = -33; D = 48*; E = 0; F = 4
Cc1ccc(-c2[nH]nc3c2C(c2cccnc2)C(C#N)=C(N)O3)cc1 (stereo not drawn)
  A = 3; B = /; C = -21; D = 78*; E = -2; F = 0
C[C@@H]1CN([C@@H](C)CO)C(=O)c2cc(NC(=O)Cc3cn(C)c4ccccc34)ccc2O[C@@H]1CN(C)Cc1ccc(-c2ccccc2)cc1
  A = /; B = 4; C = /; D = -48; E = /; F = /
CNC[C@H]1Oc2c(NC(=O)C3CCCCC3)cccc2C(=O)N([C@H](C)CO)C[C@H]1C
  A = /; B = 3; C = -12; D = 16; E = /; F = /
C[C@H]1CN([C@@H](C)CO)C(=O)c2cc(-c3ccc(F)cc3)cnc2O[C@@H]1CN(C)CC1CCCC1
  A = /; B = 22; C = 11; D = 3; E = /; F = /
O=C(O)c1ccc(-n2nnnc2SCc2ccccc2F)cc1
  A = /; B = -2; C = -2; D = 61*; E = -1; F = -3
O=C(O)/C=C\c1cccc(-n2nnnc2SCc2ccccc2F)c1
  A = 0; B = 4; C = -7; D = 52*; E = -1; F = -8
C[C@@H]1CCCCO[C@@H](CN(C)C(=O)Nc2ccc3c(c2)OCO3)[C@H](C)CN([C@@H](C)CO)C(=O)c2cc(NS(=O)(=O)c3cn(C)cn3)ccc2O1
  A = /; B = -8; C = 0; D = 1; E = /; F = /
O=C(C[C@@H]1CC[C@H]2[C@@H](COC[C@@H](O)CN2S(=O)(=O)c2ccc(Cl)cc2)O1)N[C@@H]1CCN(Cc2ccccc2)C1
  A = /; B = -1; C = -4; D = -7; E = /; F = /
N#Cc1c(-c2ccccc2)cc(C2CC2)nc1N
  A = 1; B = /; C = -36; D = /; E = 1; F = -4
N#Cc1c(-c2ccco2)cc(C2CC2)nc1N
  A = 1; B = /; C = 6; D = 71*; E = 3; F = -4
CO[C@H]1CN(C)C(=O)c2ccc(NS(=O)(=O)c3ccccc3Cl)cc2OC[C@H](C)NC[C@@H]1C
  A = /; B = -2; C = 12; D = 14; E = /; F = /
O=C(O)Cc1cccc(-c2ccccc2)c1
  A = /; B = /; C = /; D = /; E = /; F = 2
C[C@@H]1CN([C@H](C)CO)C(=O)c2cccc(NC(=O)Nc3ccccc3)c2O[C@H]1CN(C)C(=O)NC1CCCCC1
  A = /; B = -9; C = 18; D = 1; E = /; F = /
Cc1cccc(C(=O)NC(=S)NNC(=O)COc2c(C)cccc2C)c1
  A = -8; B = /; C = /; D = 76*; E = -1; F = 7
C[C@@H]1CCCCO[C@H](CN(C)C(=O)Nc2ccc(F)cc2)[C@H](C)CN([C@@H](C)CO)C(=O)c2cc(NS(=O)(=O)c3ccc(Cl)cc3)ccc2O1
  A = /; B = -2; C = 9; D = 1; E = /; F = /
COCC(=O)N1C[C@@H](C)[C@@H](OC)CN(C)C(=O)c2cc(NC(=O)Nc3cccc(F)c3)ccc2OC[C@H]1C
  A = /; B = 1; C = /; D = 5; E = /; F = /
CN(C)CC(=O)Nc1ccc2c(c1)[C@H]1C[C@H](CC(=O)NC3CCCCC3)O[C@@H](CO)[C@H]1O2
  A = /; B = -3; C = /; D = 5; E = /; F = /
COc1ccc2c3c([nH]c2c1)[C@H](CO)NCC31CCN(C(=O)Cc2ccccc2)CC1
  A = /; B = -2; C = /; D = -5; E = /; F = /
COc1ccc(/C=N/n2c(-c3n[nH]c4c3CCC4)n[nH]c2=S)cc1OC
  A = -6; B = /; C = /; D = 45*; E = -3; F = -4
Cc1noc(C)c1NC(=O)Nc1cccc2c1O[C@@H](CN(C)Cc1ccc(Oc3ccccc3)cc1)[C@H](C)CN([C@@H](C)CO)C2=O
  A = /; B = 7; C = 2; D = -15; E = /; F = /
COC(=O)c1cccc(-c2ccc(C(c3c(C)[nH][nH]c3=O)c3c(C)[nH][nH]c3=O)o2)c1
  A = -4; B = 5; C = -29; D = -1; E = -4; F = 8
COC(=O)c1ccccc1-c1ccc(C(c2c(C)[nH][nH]c2=O)c2c(C)[nH][nH]c2=O)o1
  A = 0; B = 1; C = /; D = -17; E = 7.9*; F = 10
CCNC(=O)C[C@H]1CC[C@H]2[C@@H](COc3ccc(NS(C)(=O)=O)cc3C(=O)N2C)O1
  A = /; B = -1; C = -4; D = 5; E = /; F = /

Screens from PubChem BioAssay.
